Experimental data: patent US6492381B1, “Tricyclic carbamate compounds useful for inhibition of G-protein function and for treatment of proliferative diseases” (Schering Corp., priority 1993, dated 2002)

The chains behind the UniProt entries cited, without tags or fusion partners.
UniProt Q02293, whole entry: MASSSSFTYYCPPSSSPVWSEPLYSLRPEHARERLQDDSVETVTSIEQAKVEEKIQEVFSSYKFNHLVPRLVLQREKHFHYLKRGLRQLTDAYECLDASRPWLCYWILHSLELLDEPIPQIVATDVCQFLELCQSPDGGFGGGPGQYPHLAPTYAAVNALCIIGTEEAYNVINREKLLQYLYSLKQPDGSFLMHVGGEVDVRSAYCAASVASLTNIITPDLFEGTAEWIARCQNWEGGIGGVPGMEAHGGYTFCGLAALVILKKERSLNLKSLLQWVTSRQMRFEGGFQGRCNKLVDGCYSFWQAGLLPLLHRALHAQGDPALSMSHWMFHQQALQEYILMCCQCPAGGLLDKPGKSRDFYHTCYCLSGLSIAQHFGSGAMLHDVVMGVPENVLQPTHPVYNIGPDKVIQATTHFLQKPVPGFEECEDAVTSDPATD

Experiments:
[1] = target: farnesyl protein transferase (FPT) (Rattus norvegicus, UniProt Q02293+Q04631); assay: In vitro enzyme assay: inhibition of farnesyl protein transferase; conditions: read-out: FPT IC50; Ras-CVLS farnesylation, partially purified rat brain FPT
[2] = system: Ras-CVLS processing in COS monkey kidney cells; assay: Cell-based assay: Ras-CVLS processing in transfected COS cells (immunoblot); conditions: read-out: COS IC50; inhibition of Ras-CVLS processing in Ras-transfected COS cells
Source text: 2. Cell-Based Assay: Transient expression of val^12-Ha-Ras-CVLS and val^12-Ha-Ras-CVLL in COS monkey kidney cells: Effect of farnesyl protein transferase inhibitors on Ras processing and on disordered cell growth induced by transforming Ras.
COS monkey kidney cells were transfected by electroporation with the plasmid pSV-SPORT (Gibco/BRL) containing a cDNA insert encoding either Ras-CVLS or Ras-CVLL, leading to transient overexpression of a Ras substrate for either farnesyl protein transferase or geranylgeranyl protein transferase I, respectively (see above). […]
Membranes were blocked by incubation overnight at 4° C. in PBS containing 2.5% dried milk and 0.5% Tween-20 and then incubated with a Ras-specific monoclonal antibody, Y13-259 (Furth, M. E., et al., (1982), Monoclonal antibodies to the p21 products of the transforming gene of Harvey murine sarcome virus and of the cellular ras gene family, J. Virol. 43: 294-304), in PBS containing 1% fetal calf serum for one hour at room temperature. […] The presence of processed and unprocessed Ras-CVLS or Ras-CVLL was detected using a calorimetric peroxidase reagent (4-chloro-1-naphthol) as described by the manufacturer (Bio-Rad).

IC50 [1] | SMILES | IC50 [2]
0.2 µM | O=C(Oc1ccc(Br)cc1)N1CCC(=C2c3ccc(Cl)cc3CCc3cccnc32)CC1 | 17 µM
8.2 µM | CCOC(=O)N1CCC(C2c3ccc(Cl)cc3C=Cc3cc([N+](=O)[O-])cnc32)CC1 (centres unmarked) | 
12.9 µM | CCOC(=O)N1CCC(C2c3ccc(Cl)cc3CCc3cc([N+](=O)[O-])cnc32)CC1 (centres unmarked) | 

SMILES | IC50 [1] | IC50 [2]
O=C(Oc1cccnc1)N1CCC(C2c3ccc(Cl)cc3C=Cc3c(Cl)ccnc32)CC1 (centres unmarked) | 0.53 µM | 
